# Results taken from PubChem BioAssay AID652154 (Broad Institute, 2013).
# The entries are a selection whose mix differs from that of the whole data set. Active and inactive are the calls of the source.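 How the source made its calls: active means mean replicate inhibition at least 60% with every replicate also reaching 60%; inconclusive means only one of the two criteria is met; inactive means mean below 60% and not all replicates reaching 60%.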
# Assay: PAX8 transcriptional activity inhibition in RMG-I – RMG-I cells, luciferase, single concentration, primary screen (AID 652154);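 further: luciferase light reporting Pax8 driven TPO promoter activity; plate controls were median of neutral control wells for no effect and mitoxantrone controls for full effect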
# Conditions: RMG-I TPO-luciferase reporter, SteadyGlo, 24 h; at 12.6 µM; active compounds read high
row,Compound,inhibition
1,O=[As](O)(c1ccccc1)c1ccc(O)cc1,inactive: -4.13%
2,O=[N+]([O-])c1ncn(CCn2cnc([N+](=O)[O-])n2)n1,inactive: -13.8%
3,CC(=O)NC(SC(=S)N(C)C)C(Cl)(Cl)Cl (stereo not given),inactive: -6.28%
4,O=C(OC1CN2CCC1CC2)c1cccc(Cl)c1 (stereo not given),inactive: -11.4%
5,C/C(N)=N\P(=O)(OCc1ccccc1)OCc1ccccc1,inactive: -3.21%
6,Nc1ccc([As](=O)(O)c2ccc([N+](=O)[O-])cc2)cc1,inactive: -2.25%
7,C(Cc1nn[nH]n1)Cc1nn[nH]n1,inactive: -1.77%
8,O=P(Nc1ccccn1)(c1ccc(Br)cc1)c1ccc(Br)cc1,inactive: 4.71%
9,CN(C)C1(CNC(=O)c2ccc(Cl)c(S(N)(=O)=O)c2)CCCCC1,inactive: -11.2%
10,Nc1ccc(CCCCOc2ccccc2)cc1,inactive: -92.7%
11,COc1ccc(N)c([N+](=O)[O-])c1[N+](=O)[O-],inactive: 4.55%
12,O=P(Nc1nc2ccccc2s1)(c1ccccc1)c1ccccc1,inactive: -7.61%
13,C[C@H]1OP(=O)(Oc2ccccc2)[C@H](O)[C@H](O)[C@H]1N=[N+]=[N-] (stereo not given in full),inactive: -1.9%
14,CC(C)C(=O)NC(Sc1ccccc1)C(Cl)(Cl)Cl (stereo not given),inactive: 4.66%
15,Cc1ccccc1CN(C)C(=O)COC(=O)C(O)(c1ccccc1)c1ccccc1,inactive: 11.2%
16,C[C@@H]1C=CCP(=O)(Oc2ccccc2)O1 (stereo not given in full),inactive: 7.61%
17,C[C@H]1OP(=O)(Oc2ccccc2)C[C@@H]2O[C@@H]21 (stereo not given in full),inactive: -13.9%
18,N#C/C(=C\c1ccc(N(CCBr)CCBr)cc1)C(N)=O,inactive: -7.53%
19,CC(=O)c1ccc(N2CC2c2ccncc2)cc1 (stereo not given),inactive: -15.1%
20,COC(=O)C1(C)COP(=O)(NCc2ccccc2)OC1 (stereo not given),inactive: 9.77%
21,CC(=O)Nc1ccc([As](=O)(O)O)c(O)c1,inactive: 16.7%
22,CC(=O)Nc1ccc(Oc2c([N+](=O)[O-])cc([N+](=O)[O-])cc2[N+](=O)[O-])cc1,inactive: 16.8%

row,Compound,inhibition
1,CCOc1ccc(C2=NCC(CBr)S2)cc1 (stereo not given),inactive: 17.3%
2,CC(C)(C)C(=O)NC(Sc1ccccc1)C(Cl)(Cl)Cl (stereo not given),inactive: -0.945%
3,O=C(OC1CN2CCC1CC2)c1ccccc1 (stereo not given),inactive: -4.68%
4,Cc1ccc(OP(=O)(Nc2ccccn2)Oc2ccc(C)cc2)cc1,inactive: 14.1%
5,CC(=O)NC(SC(=S)N(CC(C)C)CC(C)C)C(Cl)(Cl)Cl (stereo not given),inactive: -10.8%
6,Cc1ccccc1OP(=O)(Nc1ccccn1)Oc1ccccc1C,inactive: -11.8%
7,CC(NC(=O)COC(=O)C(O)(c1ccccc1)c1ccccc1)c1ccccc1 (stereo not given),inactive: 11.3%
8,CN(C)C(=O)Oc1noc2ccccc12,inactive: -5.87%
9,O=c1c2cc([N+](=O)[O-])ccc2[nH]c2c([N+](=O)[O-])cc([N+](=O)[O-])cc12,inactive: 6.18%
10,c1ccc(-c2nn[nH]n2)c(-c2nn[nH]n2)c1,inactive: 11.7%
11,Cc1ccc(NP(=O)(Oc2cccc(C)c2)Oc2cccc(C)c2)nc1,inactive: -6.68%
12,CCNC(=S)/N=C(\N)N[N+](=O)[O-],inactive: -2.41%
13,O=C(NC1CCS(=O)(=O)C1)NP(=S)(Oc1ccccc1)Oc1ccccc1 (stereo not given),inactive: -21%
14,O=P1(N(CCCl)CCCl)OCCC2CCCCN21 (stereo not given),inactive: -16.2%
15,Nc1cccc2ccc([As](=O)(O)O)cc12,inactive: 9.3%
16,CCN(N=Nc1nonc1N)c1nonc1N,inactive: -15.1%
17,CN(C)P(=O)(N(C)C)n1c(Nc2ccccc2)nnc1-c1ccccc1,inactive: -7.71%
18,O=P(Nc1nc2ccc(Cl)cc2s1)(c1ccccc1)c1ccccc1,inactive: 1.99%
19,O=C(O)c1ccccc1[As](=O)(O)O,inactive: 9.68%
20,CC(=O)Nc1ccc([As](=O)(O)O)cc1,inactive: -1.27%
21,CCCC1OP(N)(=O)OCC1CC (stereo not given),inactive: 9.49%
22,Cc1cc(SC(NC(=O)c2ccc(F)cc2)C(Cl)(Cl)Cl)ncn1 (stereo not given),inactive: 36.2%

row,Compound,inhibition
1,Cc1ccc(NP(=O)(Oc2ccccc2F)Oc2ccccc2F)nc1,inactive: 2.23%
2,CN(C(=O)Cc1ccc(Cl)c(Cl)c1)[C@H]1CCCC[C@@H]1N1CCCC1,inactive: 1.4%
3,O=C(NC(Sc1ccncn1)C(Cl)(Cl)Cl)c1ccccc1 (stereo not given),inactive: 8.38%
4,Nc1cc(N)c2nonc2c1[N+](=O)[O-],inactive: -20.8%
5,CN(C(=O)Cc1ccc(Cl)c(Cl)c1)[C@H]1CCCC[C@H]1N1CCCC1,inactive: 2.08%
6,Cc1ccc(N/C(=N/P(=O)(N2CCOCC2)N2CCOCC2)N2CCOCC2)cc1,inactive: 4.02%
7,NC(=O)c1cc([N+](=O)[O-])cc([N+](=O)[O-])c1N,inactive: 7.18%
8,Clc1ccc(Cl)c(NC2=NCC(CBr)S2)c1 (stereo not given),inactive: 10.4%
9,COc1ccccc1OP(=O)(Nc1ccc(C)cn1)Oc1ccccc1OC,inactive: 24.2%
10,Cc1ccc(OP(=O)(Nc2nccs2)Oc2ccc(C)cc2)cc1,inactive: 3.28%
11,CCN(/C(=N/P(=O)(N1CCOCC1)N1CCOCC1)N1CCOCC1)c1ccc(OC)cc1,inactive: 17.2%
12,Nc1ccc([As](=O)(O)c2ccc(N)cc2)cc1,inactive: -9.52%
13,C[N+]1=C2C=CC=CC=C2SC12C([N+](=O)[O-])=CC([N+](=O)[O-])=C[C-]2[N+](=O)[O-] (stereo not given),inactive: 30.7%
14,c1cc(-c2nn[nH]n2)ccc1-c1nn[nH]n1,inactive: -4.41%
15,CC(C)=N/N=C(\N)N[N+](=O)[O-],inactive: 24.6%
16,CC(C)c1nc(Nc2ccccc2)n(P(=O)(N(C)C)N(C)C)n1,inactive: -10.1%
17,COc1ccc(C2=NCC(CBr)S2)cc1 (stereo not given),inactive: 14.7%
18,Cc1ccc(NP(=O)(Oc2ccccc2)Oc2ccccc2)nc1,inactive: 20.1%
19,O=[N+]([O-])c1cc([N+](=O)[O-])c(CCNc2ccccc2)c([N+](=O)[O-])c1,inactive: 20.8%
20,O=[N+]([O-])c1cccc2n[nH]nc12,inactive: 10.1%
21,O=[N+]([O-])c1ncn(CCn2ncnc2[N+](=O)[O-])n1,inactive: 17.7%
